# The list shows a part of the results, in another mix than the full data. Active and inactive are the calls of the source. No stated cut-off is given here; in the data, active means inhibition above about 42%; inactive means the rest.
# Chains of the proteins cited; added tags and fusions are not shown.
# UniProt O00482, whole entry: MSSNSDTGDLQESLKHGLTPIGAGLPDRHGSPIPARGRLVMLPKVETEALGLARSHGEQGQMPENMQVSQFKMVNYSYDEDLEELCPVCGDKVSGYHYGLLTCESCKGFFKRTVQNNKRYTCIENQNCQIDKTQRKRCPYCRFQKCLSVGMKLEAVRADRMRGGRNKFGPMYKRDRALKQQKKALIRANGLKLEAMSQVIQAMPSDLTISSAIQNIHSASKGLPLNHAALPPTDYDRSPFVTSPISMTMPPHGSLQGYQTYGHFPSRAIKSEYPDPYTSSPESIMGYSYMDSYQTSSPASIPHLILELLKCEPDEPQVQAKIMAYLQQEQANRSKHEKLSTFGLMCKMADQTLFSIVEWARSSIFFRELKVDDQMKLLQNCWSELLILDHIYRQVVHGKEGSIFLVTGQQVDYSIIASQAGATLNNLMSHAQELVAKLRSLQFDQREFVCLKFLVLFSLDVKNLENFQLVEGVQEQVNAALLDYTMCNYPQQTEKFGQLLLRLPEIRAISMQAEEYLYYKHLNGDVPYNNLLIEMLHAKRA
# Target: Nuclear receptor subfamily 5 group A member 2 (Homo sapiens) (UniProt O00482)
# Test: NR5A2 activity suppression in reporter cells – cell-based, luminescence, confirmation (AID 651613);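 further: HEK293T cells co-transfected with LRH-1 and StAR promoter luciferase reporter; 0% = vehicle wells and 100% = parental cells lacking receptor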
# Details: cell-based LRH-1 luciferase reporter, inverse agonism; at 3.6 µM; hits give high values
row,SMILES,inhibition
1,O=[N+]([O-])c1cc([N+](=O)[O-])c(-c2cnn(-c3ccccc3)c2)c([N+](=O)[O-])c1,active: 61.3%

# Reference: PubChem BioAssay AID651613 (The Scripps Research Institute Molecular Screening Center, 2012)
